Only a part is listed here, and it is no random draw. Results filed as inconclusive are left out. Active and inactive are the calls of the source. Calls come from the whole dose curve; as a rule, active = well fitted inhibition curve with a large enough effect; inconclusive = small, poorly fitted or top-dose-only effect; inactive = no such curve, though single readings can be large or run the other way.

By UniProt entry, the sequences of proteins in these tests, tags left out. Where a name states a change or a piece, a line headed by the entry shows the natural chain unless it says otherwise.
UniProt O95398: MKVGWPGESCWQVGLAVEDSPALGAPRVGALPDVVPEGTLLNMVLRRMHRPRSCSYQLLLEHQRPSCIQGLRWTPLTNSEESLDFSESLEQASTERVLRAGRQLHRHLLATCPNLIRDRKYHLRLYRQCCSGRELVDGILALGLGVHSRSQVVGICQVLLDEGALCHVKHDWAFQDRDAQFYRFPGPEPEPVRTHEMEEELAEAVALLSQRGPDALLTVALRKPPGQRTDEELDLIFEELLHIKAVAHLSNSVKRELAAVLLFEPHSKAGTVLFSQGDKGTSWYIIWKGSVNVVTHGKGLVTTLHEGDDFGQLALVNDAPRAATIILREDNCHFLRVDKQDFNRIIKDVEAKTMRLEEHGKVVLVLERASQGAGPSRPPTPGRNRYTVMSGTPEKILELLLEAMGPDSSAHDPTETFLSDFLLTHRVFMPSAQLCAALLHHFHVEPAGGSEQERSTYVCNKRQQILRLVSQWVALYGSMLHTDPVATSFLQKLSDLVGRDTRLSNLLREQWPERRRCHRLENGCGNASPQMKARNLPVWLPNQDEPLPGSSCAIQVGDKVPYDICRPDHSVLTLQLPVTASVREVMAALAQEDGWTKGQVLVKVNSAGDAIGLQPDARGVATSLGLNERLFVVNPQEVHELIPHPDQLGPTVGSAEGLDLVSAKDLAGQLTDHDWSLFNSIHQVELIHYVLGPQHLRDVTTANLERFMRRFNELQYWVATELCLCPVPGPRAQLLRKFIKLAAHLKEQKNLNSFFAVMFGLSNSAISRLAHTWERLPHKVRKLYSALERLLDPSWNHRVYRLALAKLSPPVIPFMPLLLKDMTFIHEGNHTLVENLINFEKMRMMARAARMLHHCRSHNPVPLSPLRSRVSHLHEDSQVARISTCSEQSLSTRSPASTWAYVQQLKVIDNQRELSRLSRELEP

The target in the assay is Rap guanine nucleotide exchange factor 3 (Homo sapiens) (UniProt O95398). Briefly: qHTS for Antagonist of cAMP-regulated guanine nucleotide exchange factor 3 (EPAC1): primary screen. Note: nearly all actives have a fitted effect of over 50% in size. To be noted: EPAC1 GEF assay, Rap1b-BODIPY-GDP exchange fluorescence; at 115 µM (top of the series). The text has this:
In multi-cellular eukaryotic organisms, the effects of cAMP are transduced by two ubiquitously-expressed intracellular cAMP receptors, the classic protein kinase A/cAMP-dependent protein kinase (PKA/cAPK) and the more recently discovered exchange protein directly activated by cAMP/cAMP-regulated guanine nucleotide exchange factor (EPAC/cAMP-GEF). Both PKA and EPAC are ubiquitously expressed in all tissues, and an increase in intracellular cAMP levels will lead to the activation of both PKA and EPAC. Therefore, careful dissections of the individual role and relative contribution of EPAC and PKA within the overall cAMP signaling in various model systems are critical for further elucidating the mechanism of cAMP signaling. To date no EPAC-specific antagonists and agonist, as well as isoform-specific agonists have been reported, and developing EPAC-specific pharmacological probes to determine the physiological functions that EPAC play in the overall cAMP-mediated signaling remains a major challenge within the research field. Furthermore, identified regulators of EPAC may lead to new mechanism-based therapeutic strategies specifically targeting the EPAC / cAMP-signaling components as EPAC has been implicated to play important roles in major human pathological conditions such as diabetes, heart disease, and cancer. This qHTS will be used to screen the Molecular Libraries Small Molecule Repository (MLSMR) as a concentration-titration series using the NCGC unique quantitative screening (qHTS) platform to find inhibitors for EPAC1. In addition, this assay will also be used as a counterscreen for the EPAC2 qHTS. This fluorescent based assay is developed and validated for EPAC1 that measures exchange using EPAC effector Rap1 complex with BODIPY-GDP, a GDP analog with a tethered fluorophores. Inhibitors are identified by monitoring the change in fluorescence signal as the exchanged free BODIPY-GDP has a reduced fluorescence compared to Rap1-bound BODIPY-GDP. Decrease in signal (inhibition) is the desired outcome for the EPAC1 antagonist while no activity in this assay is desired for the EPAC2 antagonist counterscreen. de Rooij, J., Zwartkruis, F. J., Verheijen, M. H., Cool, R. H., Nijman, S. M., Wittinghofer, A., and Bos, J.L. (1998) Nature 396, 474-477 [2] Kawasaki, H., Springett, G. M., Mochizuki, N., Toki, S., Nakaya, M., Matsuda, M., Housman, D. E., and Graybiel, A. M. (1998) Science 282, 2275-2279 NIH Chemical Genomics Center [NCGC] NIH Molecular Libraries Probe Centers Network [MLPCN] MLPCN Grant: NS066510 Assay Submitter (PI): Xiaodong Cheng, The University of Texas, Medical Branch
Briefly, three uL of reagents (100 nM EPAC1, 250 nM RAP1B-BODIPY-GDP, 50 uM GDP) were dispensed into a 1536-well Greiner black solid-bottom medium binding assay plate. Controls and test compounds (23 nL) were transferred to the plate via a Kalypsys pin tool equipped with a 1536-pin array. The plates were centrifuged at 1,000 rpm for 15 seconds followed by 5 minute incubation at room temperature. The assay plates were read at 5 minute intervals for 30 minutes in the ViewLux plate reader using 480nm excitation and 540nm emission filters. The results were normalized to the […] positive control ATA and DMSO.
Background: In qHTS, concentration-response curves come from the screen itself.
As to `CN(C)C1(CNC(=O)c2ccc(S(C)(=O)=O)cc2)CCCCC1`, the activity change, negative = inhibition is inactive: -4.61%.

In the case of `O=C(/C=C/c1ccccc1)OC1CN2CCC1CC2` (stereo not given), the activity change, negative = inhibition was inactive: -1.07%.

Turning to `CCCC1OP(=O)(Nc2ccccc2)OCC1CC` (stereo not given), the activity change, negative = inhibition is inactive: -1.58%.

For the compound `COc1ccccc1CNC(=O)COC(=O)C(O)(c1ccccc1)c1ccccc1`, the activity change, negative = inhibition is inactive: -15.2%.

As for `CC(C)/C=N\N=C(\N)N[N+](=O)[O-]`, the activity change, negative = inhibition is inactive: -0.404%.

On to `CC1(CBr)Cn2c(nc3ccccc3c2=O)S1` (stereo not given), for which the activity change, negative = inhibition is inactive: 5.59%.

In the case of `O=P1(Nc2ccccn2)COc2ccccc2OC1`, the activity change, negative = inhibition is inactive: -15.5%.

In the case of `CCOP(=O)(NC(=NC(C)c1ccccc1)NC(C)c1ccccc1)OCC` (stereo not given), the activity change, negative = inhibition is inactive: -24.1%.

For `CN(CCCl)Cc1cc(Cl)c(NC2=NCCN2)c(Cl)c1`, the activity change, negative = inhibition was inactive: -8.78%.

For the compound `CCOP(=O)(Nc1ccc(C)cn1)OCC`, the activity change, negative = inhibition was inactive: 0.0787%.

On to `Clc1n[nH]nc1-c1nn[nH][15n]1`, for which the activity change, negative = inhibition was inactive: -9.46%.

Turning to `O=P1(N(CCCl)CCCl)NCCC(C(F)(F)F)O1` (stereo not given), the activity change, negative = inhibition is inactive: 7.68%.

Take `CC(C)(C)C(=O)NC(Sc1ncccn1)C(Cl)(Cl)Cl` (stereo not given): the activity change, negative = inhibition is inactive: -2.69%.

In the case of `Nc1cccc2c([As](=O)(O)O)cccc12`, the activity change, negative = inhibition was inactive: 1.93%.

In the case of `Cc1ccc(NCCc2c([N+](=O)[O-])cc([N+](=O)[O-])cc2[N+](=O)[O-])cc1`, the activity change, negative = inhibition is inactive: -8.94%.

Consider `CCCOP(=S)(Nc1nc(N)cc(=O)[nH]1)OCCC`, for which the activity change, negative = inhibition is inactive: -1.46%.

Turning to `COc1cc(C2NCCC3(OCCO3)C2(C)C)cc(OC)c1OC` (stereo not given), the activity change, negative = inhibition was inactive: 2.87%.

Consider `CCOP(=O)(Nc1cccc2ccccc12)OCC`, for which the activity change, negative = inhibition was inactive: -11.3%.

On to `O=C(OC1CN2CCC1CC2)c1ccc(Cl)cc1` (stereo not given), for which the activity change, negative = inhibition was inactive: -4.97%.

On to `COc1cc(C(=O)NCC2(N3CCOCC3)CCCCC2)cc(Cl)c1OC(C)C`, for which the activity change, negative = inhibition is inactive: -11.8%.

On to `O=[As](O)(O)c1cccnc1`, for which the activity change, negative = inhibition is inactive: -28.4%.

`CS(=O)(=O)c1ccc(Cl)c(NC(=O)COC(=O)C(O)(c2ccccc2)c2ccccc2)c1`: the activity change, negative = inhibition is inactive: -7.34%.

`O=[As](O)(c1cccc(O)c1)c1cccc(O)c1`: the activity change, negative = inhibition was inactive: -3.71%.

Consider `Cc1cccc(OCC(=O)OC2CN3CCC2CC3)c1` (stereo not given), for which the activity change, negative = inhibition was inactive: 5.35%.

On to `NC(=O)Nc1ccc([As](=O)(O)O)cc1`, for which the activity change, negative = inhibition was inactive: -2.54%.

For `N#CCCN(C(=O)COC(=O)C(O)(c1ccccc1)c1ccccc1)c1ccc(F)cc1`, the activity change, negative = inhibition was inactive: -3.93%.

Regarding `CN(C(=O)Cc1ccccc1)[C@@H]1CC[C@]2(CCCO2)C[C@H]1N1CCCC1`, the activity change, negative = inhibition was inactive: -17%.

As to `CN(C)C(=O)c1cc([N+](=O)[O-])cc2c1-c1c(cc([N+](=O)[O-])cc1[N+](=O)[O-])C2=O`, the activity change, negative = inhibition is inactive: 1.66%.

Turning to `O=[N+]([O-])c1ccc2c(c1)nnn2O`, the activity change, negative = inhibition is inactive: 0.0678%.

Regarding `CN(C(=O)Cc1ccc(Cl)c(Cl)c1)[C@H]1CC[C@@]2(CCCO2)C[C@@H]1N1CCCC1`, the activity change, negative = inhibition was inactive: -0.237%.

For the compound `CCOP1(=S)c2c(C)nn(CCC#N)c2N=C(c2ccccc2F)N1C` (stereo not given), the activity change, negative = inhibition was inactive: -6.98%.

Take `O=P(Nc1nccs1)(c1ccccc1)c1nc2ccccc2s1` (stereo not given): the activity change, negative = inhibition is inactive: -4.7%.

As for `O=P(Nc1nccs1)(Oc1ccccc1)Oc1ccccc1`, the activity change, negative = inhibition is inactive: -10.3%.

For `CS(=O)(=O)c1cc([N+](=O)[O-])c2no[n+]([O-])c2c1`, the activity change, negative = inhibition was inactive: 1.73%.

Take `O=C(O)COc1ccc([As](=O)(O)O)cc1[N+](=O)[O-]`: the activity change, negative = inhibition is inactive: -20%.

Take `Nc1ccccc1[As](=O)(O)c1ccccc1`: the activity change, negative = inhibition was inactive: 16.5%.

On to `CCC(=O)N1C2C3N(C(=O)CC)C1C1N(C(=O)CC)C(C(N1C(=O)CC)N3C(=O)CC)N2C(=O)CC`, for which the activity change, negative = inhibition is inactive: -0.752%.

With `COC(=O)c1cc2c(s1)N=C(c1ccccc1)N(C)P2(=O)N1CCOCC1` (stereo not given), the activity change, negative = inhibition is inactive: -7.81%.

Consider `Cc1ccc(OP(=O)(Nc2ccccn2)Oc2ccc(C)cc2)cc1`, for which the activity change, negative = inhibition is inactive: -2.86%.

As to `CC(=O)NC(SC(=S)N(CC(C)C)CC(C)C)C(Cl)(Cl)Cl` (stereo not given), the activity change, negative = inhibition was inactive: -0.11%.

Turning to `Cc1ccccc1OP(=O)(Nc1ccccn1)Oc1ccccc1C`, the activity change, negative = inhibition was inactive: 9.16%.

Regarding `CC(NC(=O)COC(=O)C(O)(c1ccccc1)c1ccccc1)c1ccccc1` (stereo not given), the activity change, negative = inhibition is inactive: -0.293%.

In the case of `CN(C)C(=O)Oc1noc2ccccc12`, the activity change, negative = inhibition is inactive: -4.5%.

As for `O=c1c2cc([N+](=O)[O-])ccc2[nH]c2c([N+](=O)[O-])cc([N+](=O)[O-])cc12`, the activity change, negative = inhibition is inactive: -4.3%.

On to `c1ccc(-c2nn[nH]n2)c(-c2nn[nH]n2)c1`, for which the activity change, negative = inhibition was inactive: -9.77%.

With `Cc1ccc(NP(=O)(Oc2cccc(C)c2)Oc2cccc(C)c2)nc1`, the activity change, negative = inhibition is inactive: 6.87%.

For the compound `CCNC(=S)/N=C(\N)N[N+](=O)[O-]`, the activity change, negative = inhibition was inactive: 4.11%.

Take `O=P1(N(CCCl)CCCl)OCCC2CCCCN21` (stereo not given): the activity change, negative = inhibition was inactive: 4.8%.

With `C[C@@H]1C=CCP(=O)(Oc2ccccc2)O1` (stereo not given in full), the activity change, negative = inhibition was inactive: -8.65%.

For `C[C@H]1OP(=O)(Oc2ccccc2)C[C@@H]2O[C@@H]21` (stereo not given in full), the activity change, negative = inhibition is inactive: -17.9%.

These data come from PubChem BioAssay AID720709 (National Center for Advancing Translational Sciences (NCATS), 2013).
